Experimental data as given in PMC8855368 (Journal of medicinal chemistry, 2019).

How the values were obtained:
HCT116 = assay: MTT cell viability assay, HCT116; conditions: read-out: IC50-MTT HCT116; HCT116, 72 h; values of two independent experiments
HT29 = assay: MTT cell viability assay, HT29; conditions: read-out: IC50-MTT HT29; HT29, 72 h; values of two independent experiments
[1] = room temperature overnight, LC–MS

C=CC(=O)N(CC(=O)NC1COC1)c1nc(-c2ccccc2)cs1 [Compound 42, N-(2-(Oxetan-3-ylamino)-2-oxoethyl)-N-(4-phenylthiazol-2-yl)acrylamide]
IC50 (HCT116): 23.2 µM

C=CC(=O)Nc1nc(-c2ccccc2)c(C)s1 [Compound 29, N-(4-Phenyl-5-methyl-thiazol-2-yl)acrylamide]
IC50 (HCT116): 20.1 µM

C=CC(=O)N(Cc1cc(C)no1)c1nc(-c2ccc(C(F)(F)F)cc2)cs1 [Compound 47, N-((3-Methylisoxazol-5-yl)methyl)-N-(4-(4-trifluoromethylphenyl)thiazol-2-yl)acrylamide]
IC50 (HT29): 22.3 µM

C=CC(=O)Nc1nc(-c2ccc(C)cc2)cs1 [Compound 19, N-(4-(4-Methylphenyl)thiazol-2-yl)acrylamide]
IC50 (HCT116): 15.3 µM

C=CC(=O)Nc1nc(-c2ccc(Cl)cc2)cs1 [Compound 18, N-(4-(4-Chlorophenyl)thiazol-2-yl)acrylamide]
stability in 20% acetonitrile/PBS buffer solution [1]: good stability
IC50 (HT29): 23.7 µM
IC50 (HCT116): 12.6 µM

C=CC(=O)Nc1nc(-c2ccc3ccccc3c2)cs1 [Compound 23, N-(4-(Naphthalen-2-yl)thiazol-2-yl)acrylamide]
IC50 (HT29): 13.4 µM
IC50 (HCT116): 11.8 µM

C=CC(=O)Nc1ncc(-c2ccccc2)s1 [Compound 9, N-(5-Phenylthiazol-2-yl)acrylamide]
IC50 (HT29): 24.3 µM

C=CS(=O)(=O)Nc1ccc(Cl)c(S(=O)(=O)N(C)C)c1 [Compound 2, 2-Chloro-N,N-dimethyl-5-(vinylsulfonamido)benzenesulfonamide]
IC50 (HT29): 16.8 µM
IC50 (HCT116): 11 µM

C=CC(=O)N(CC(=O)NCCN1CCOCC1)c1nc(-c2ccccc2)cs1 [Compound 43, N-(2-((2-Morpholinoethyl)amino)-2-oxoethyl)-N-(4-phenylthiazol-2-yl)acrylamide]
IC50 (HT29): 12.2 µM

C=CC(=O)Nc1nc(-c2ccccc2Cl)cs1 [Compound 16, N-(4-(2-Chlorophenyl)thiazol-2-yl)acrylamide]
IC50 (HT29): 19.5 µM
IC50 (HCT116): 12.3 µM

C=CC(=O)N(Cc1cc(C)no1)c1cc(-c2ccccc2O)cs1 [Compound 53, N-(4-(2-Hydroxyphenyl)thiophen-2-yl)-N-((3-methylisoxazol-5-yl)methyl)acrylamide]
IC50 (HT29): 29.5 µM
IC50 (HCT116): 19.3 µM

C=CC(=O)N(CC(=O)N1CCOCC1)c1nc(-c2ccccc2)cs1 [Compound 41, N-(2-Morpholino-2-oxoethyl)-N-(4-phenylthiazol-2-yl)acrylamide]
IC50 (HT29): 13.3 µM
IC50 (HCT116): 14.6 µM

C=CC(=O)Nc1nc(-c2ccccc2)cs1 [Compound 10, N-(4-Phenylthiazol-2-yl)acrylamide]
IC50 (HCT116): 29 µM

C=CC(=O)Nc1nc(-c2ccc(C(F)(F)F)cc2)cs1 [Compound 20, N-(4-(4-Trifluoromethylphenyl)thiazol-2-yl)acrylamide]
IC50 (HT29): 4 µM
IC50 (HCT116): 4 µM

C=CC(=O)Nc1nc(-c2ccccc2O)cs1 [Compound 24, N-(4-(2-Hydroxylphenyl)thiazol-2-yl)acrylamide]
IC50 (HT29): 24.9 µM

C=CC(=O)Nc1nc(-c2cccc(Cl)c2)cs1 [Compound 17, N-(4-(3-Chlorophenyl)thiazol-2-yl)acrylamide]
IC50 (HCT116): 11.9 µM

C=CC(=O)Nc1nc(-c2ccc(OC)cc2)cs1 [Compound 21, N-(4-(4-Methoxyphenyl)thiazol-2-yl)acrylamide]
IC50 (HCT116): 8 µM

C=CC(=O)Nc1nc(-c2ccc3c(c2)OCO3)cs1 [Compound 22, N-(4-(3,4-Dioxylphenyl)thiazol-2-yl)acrylamide]
IC50 (HT29): 17.7 µM

C=CC(=O)Nc1nc(-c2ccccc2)c(C(=O)OCC)s1 [Compound 30, Ethyl 2-Acrylamido-4-phenylthiazole-5-carboxylate]
IC50 (HT29): 18 µM
IC50 (HCT116): 19.6 µM
